# Laboratory results taken from article PMC6373530 (Pharmaceutical Research, 2019).
# B1: soluble poFcγRIIb (dimeric IgG Fc fusion of the extracellular domain) (Fc fusion)
# chain: VLPKAEVKLQPAWINVLQEDSVTLTCQGDHDPGNTTTQWFHNGNFTWTENQPSFSFKARRASSGHYRCQTAYSSLSDPVHLDVISDWLLLQTSSLVFQEGEPILLRCHSWRNKPLHKVAFFQNGKSKKFSYVDSNFSIPQANQSHSGEYHCTGFIGKMSYSSQSVNITVQGSSLNNLL
# modifications: biotin on the Avi-tag (BirA) in the FcγR capturing set-up only
# Molecular target: trastuzumab (huIgG1, anti-HER2 therapeutic antibody) (human)
# Assay: SPR; IgG capturing set-up, Biacore T200: HER2 extracellular domain amine-coupled on a CM5 chip, HER2-specific IgG captured (about 1000 RU), soluble dimeric FcγR flowed at 600, 200 and 66.7 nM, PBS-P+ pH 7.4; qualitative, with Interaction Map analysis
# Settings: both partners purified
binder,measurement,value
B1,fold affinity against huFcγRIIb,3 fold
